Experimental data as given in patent US20200246284A1 (Academia Sinica, priority 2015, published 2020).
pIC50: −log10 of the molar value.

Experiments:
[1] = tested on: BCI-NSI hTERT bronchial epithelium; experiment: Cytotoxicity normal tissue 72 hr; type: cell-based, human
BMMSC BM mesenchyme = experiment: Cytotoxicity normal tissue 72 hr; type: cell-based, human
[2] = tested on: HUVEC umbilical endothelium; experiment: Cytotoxicity normal tissue 72 hr; type: cell-based, human
NOSE ovarian epithelium = experiment: Cytotoxicity normal tissue 72 hr; type: cell-based, human
CV1 renal fibroblasts = experiment: Cytotoxicity normal tissue 72 hr; type: cell-based, African green monkey (Cercopithecus aethiops); details: CV1 primate
[3] = tested on: Cord Blood CFC (CFU-GM, BFU-E, CFU-C); experiment: CFC assay; type: cell-based, human
[4] = tested on: normal human, murine or primate cell and tissue types; experiment: Cytotoxicity, panel of normal tissues (MTT, alamar blue); type: cell-based
JEKO-1 = experiment: Cytotoxicity mantle cell lymphoma; details: JEKO-1, 72 hr (Table 27)
[5] = tested on: cord blood hematopoietic progenitors (CD34+ cells, CFC); experiment: Cytotoxicity normal tissue 72 hr (Table 27); details: CD34, 72 hr

4-Hydroperoxycyclophosphamide gave a pIC50 ([1]; BCI-NSI hTERT) of 4.74, a pIC50 ([1]; Bci-NSI) of 4.74 and a pIC50 (BMMSC BM mesenchyme; BMMSC) of 4.39. It also gave a pIC50 (BMMSC BM mesenchyme; HuMSC) of 4.39, a pIC50 [2] of 4.39 and a pIC50 (NOSE ovarian epithelium) of 6.52. The pIC50 (CV1 renal fibroblasts) was 4.33, the pIC50 [3] was 5.70 and the pIC50 ([4]; 2 normal tissues, moderate cytotoxicity) was 5.70 to 6.52. The pIC50 ([4]; 5 resistant normal tissues) was 4.33 to 4.90, the pIC50 (JEKO-1) was 5.00 and the pIC50 [5] was 5.70.
